# Measurements reported in patent US12234237B2, “Folate salts” (priority 2018, dated 2025).
# Assay: Solubility of the folate salt in organic (apolar) solvents at 20° C.
# Method: Solubility has been determined at 20° C. Apolar solvents or mixtures thereof are for instance glycerol, methanol, ethanol, 1-propanol, 2-propanol and dimethylsulfoxid (DMSO). Apolar solvents are understood as dry solvents, that is without any water content. Apolar solvents may be pure solvents, comprising only one type of apolar solvent or it may be a mixture of at least two of the aforementioned apolar solvents. Polarity is in comparison to the polarity of water.
# A high degree of crystallinity means that the crystalline content of the folate salt is higher than 40% based on the total amount of the folate salt.
substance,measurement,setting,value
5-Methyl-(6S)-tetrahydrofolic acid di Choline salt [L-MTHF di Choline],Solubility in 1-Propanol,"1-propanol, 20° C., based on total weight of the solution",0.2% w/w
same,Solubility in DMSO,"DMSO, 20° C., based on total weight of the solution",31.3% w/w
same,"Solubility in mixtures of organic solvents, highly crystalline salt","ethanol with 5 weight-% methanol or glycerol, highly crystalline salt, based on total weight of the solution",up to 25 weight-%
same,Solubility in Ethanol,"ethanol, 20° C., based on total weight of the solution",0.3% w/w
same,"Solubility in ethanol, highly crystalline salt","ethanol, high crystalline content, based on total weight of the solution",0.3 weight-%
same,"Solubility in ethanol, high amorphous content","ethanol, salt at a high amorphous content",38.8 weight-%
same,Solubility in Glycerol,"glycerol, 20° C., based on total weight of the solution",24.1% w/w
same,Solubility in Methanol,"methanol, 20° C., based on total weight of the solution",38.7% w/w
